Test results from patent publication US10442819B2, “Tricyclic compounds as inhibitors of mutant IDH enzymes” (Merck Sharp & Dohme Corp., priority 2014, dated 2019).

By UniProt entry, the sequences of proteins in these tests, tags left out.
UniProt O75874, whole entry R132H: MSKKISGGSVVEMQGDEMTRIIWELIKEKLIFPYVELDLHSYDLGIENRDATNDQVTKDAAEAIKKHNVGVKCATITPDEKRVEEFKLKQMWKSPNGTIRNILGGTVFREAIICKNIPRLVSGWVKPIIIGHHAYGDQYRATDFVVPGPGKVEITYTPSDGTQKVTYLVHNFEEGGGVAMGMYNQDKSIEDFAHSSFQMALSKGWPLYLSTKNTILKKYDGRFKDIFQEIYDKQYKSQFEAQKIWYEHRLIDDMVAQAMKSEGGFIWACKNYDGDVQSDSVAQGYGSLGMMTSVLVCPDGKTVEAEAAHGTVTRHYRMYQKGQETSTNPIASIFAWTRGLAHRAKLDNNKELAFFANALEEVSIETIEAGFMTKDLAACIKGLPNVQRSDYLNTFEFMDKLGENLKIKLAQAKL

Biological target: R132H mutant IDH1 enzyme (Homo sapiens (Human), UniProt O75874, R132H)
Test: R132H IDH1 Enzymatic Assay
Assay type: biochemical
Conditions: R132H mutant IDH1 enzyme 1.5 nM final; luminescence readout; read-out: IC50

Structure (SMILES) | IC50
[2H]C1([2H])OC([2H])([2H])C([2H])([2H])N(c2ccc3c(c2)N(C(=O)[C@H]2CC[C@H](OC)CC2)Cc2cccnc2N3)C1([2H])[2H] [Example 235, (trans-4-methoxycyclohexyl){8-[(^2H8)morpholin-4-yl]-5,11-dihydro-6H-pyrido[2,3-b][1,5]benzodiazepin-6-yl}methanone] | 961 nM
COCCN(C)c1ccc2c(c1)N(C(=O)[C@H]1CC[C@H](OC)CC1)Cc1cccnc1N2 [Example 236, 6-[(trans-4-methoxycyclohexyl)carbonyl]-N-(2-methoxyethyl)-N-methyl-6,11-dihydro-5H-pyrido[2,3-b][1,5]benzodiazepin-8-amine] | 195 nM
COCCN(C)c1ccc2c(c1)N(C(=O)[C@H]1CC[C@@H](OC)CC1)Cc1cccnc1N2 [Example 237, 6-[(cis-4-methoxycyclohexyl)carbonyl]-N-(2-methoxyethyl)-N-methyl-6,11-dihydro-5H-pyrido[2,3-b][1,5]benzodiazepin-8-amine] | 130 nM
CO[C@H]1CC[C@H](C(=O)N2Cc3cccnc3Nc3ccc(N4CCN(CC(F)(F)F)CC4)cc32)CC1 [Example 238, 6-[(trans-4-methoxycyclohexyl)carbonyl]-8-[4-(2,2,2-trifluoroethyl)piperazin-1-yl]-6,11-dihydro-5H-pyrido[2,3-b][1,5]benzodiazepine] | 989 nM
CO[C@H]1CC[C@@H](C(=O)N2Cc3cccnc3Nc3ccc(N4CCN(CC(F)(F)F)CC4)cc32)CC1 [Example 239, 6-[(cis-4-methoxycyclohexyl)carbonyl]-8-[4-(2,2,2-trifluoroethyl)piperazin-1-yl]-6,11-dihydro-5H-pyrido[2,3-b][1,5]benzodiazepine] | 910 nM
COCCN(CCOC)c1ccc2c(c1)N(C(=O)[C@H]1CC[C@H](OC)CC1)Cc1cccnc1N2 [Example 240, 6-[(trans-4-methoxycyclohexyl)carbonyl]-N,N-bis(2-methoxyethyl)-6,11-dihydro-5H-pyrido[2,3-b][1,5]benzodiazepin-8-amine] | 181 nM
COCCN(CCOC)c1ccc2c(c1)N(C(=O)[C@H]1CC[C@@H](OC)CC1)Cc1cccnc1N2 [Example 241, 6-[(cis-4-methoxycyclohexyl)carbonyl]-N,N-bis(2-methoxyethyl)-6,11-dihydro-5H-pyrido[2,3-b][1,5]benzodiazepin-8-amine] | 165 nM
CO[C@H]1CC[C@@H](C(=O)N2Cc3cccnc3Nc3ccc(N4CCN(C5(C(F)(F)F)CC5)CC4)cc32)CC1 [Example 242, 6-[(cis-4-methoxycyclohexyl)carbonyl]-8-{4-[1-(trifluoromethyl)cyclopropyl]piperazin-1-yl}-6,11-dihydro-5H-pyrido[2,3-b][1,5]benzodiazepine] | 177 nM
CO[C@H]1CC[C@H](C(=O)N2Cc3cccnc3Nc3ccc(N4C[C@H]5CC[C@@H](C4)O5)cc32)CC1 [Example 243, 6-[(trans-4-methoxycyclohexyl)carbonyl]-8-[(1R,5S)-8-oxa-3-azabicyclo[3.2.1]oct-3-yl]-6,11-dihydro-5H-pyrido[2,3-b][1,5]benzodiazepine] | 83 nM
CO[C@H]1CC[C@H](C(=O)N2Cc3cccnc3Nc3ccc(N4CCN(C5(C(F)(F)F)CC5)CC4)cc32)CC1 [Example 244, 6-[(trans-4-methoxycyclohexyl)carbonyl] 8-{4-[1-(trifluoromethyl)cyclopropyl]piperazin-1-yl}-6,11-dihydro-5H-pyrido[2,3-b][1,5]benzodiazepine] | 300 nM
CO[C@H]1CC[C@H](C(=O)N2Cc3cccnc3Nc3ccc(N4CCCC(CN5CCOCC5)C4)cc32)CC1 (stereo partly drawn) [Example 245, 6-[(trans-4-methoxycyclohexyl)carbonyl]-8-[3-(morpholin-4-ylmethyl)piperidin-1-yl]-6,11-dihydro-5H-pyrido[2,3-b][1,5]benzodiazepine] | 286 nM
CO[C@H]1CC[C@H](C(=O)N2Cc3cccnc3Nc3ccc(N4CCCC(OCC(F)(F)F)C4)cc32)CC1 (stereo partly drawn) [Example 246, 6-[(trans-4-methoxycyclohexyl)carbonyl]-8-[3-(2,2,2-trifluoroethoxy)piperidin-1-yl]-6,11-dihydro-5H-pyrido[2,3-b][1,5]benzodiazepine] | 459 nM
CO[C@H]1CC[C@H](C(=O)N2Cc3cccnc3Nc3ccc(N(C)C4COC4)cc32)CC1 [Example 247, 6-[(trans-4-methoxycyclohexyl)carbonyl]-N-methyl-N-oxetan-3-yl-6,11-dihydro-5H-pyrido[2,3-b][1,5]benzodiazepin-8-amine] | 342 nM
CCN1C(=O)OCC12CCN(c1ccc3c(c1)N(C(=O)[C@H]1CC[C@H](OC)CC1)Cc1cccnc1N3)C2 (stereo partly drawn) [Example 248, 1-ethyl-7-{6-[(trans-4-methoxycyclohexyl)carbonyl]-6,11-dihydro-5H-pyrido[2,3-b][1,5]benzodiazepin-8-yl}-3-oxa-1,7-diazaspiro[4.4]nonan-2-one] | 159 nM
CO[C@H]1CC[C@H](C(=O)N2Cc3cccnc3Nc3ccc(N4CC[C@H]5[C@@H](C4)N(C)C(=O)N5C)cc32)CC1 [Example 249, (3aR,7aS)-5-{6-[(trans-4-methoxycyclohexyl)carbonyl]-6,11-dihydro-5H-pyrido[2,3-b][1,5]benzodiazepin-8-yl}-1,3-dimethyloctahydro-2H-imidazo[4,5-c]pyridin-2-one] | 69 nM
CCN(c1ccc2c(c1)N(C(=O)[C@H]1CC[C@H](OC)CC1)Cc1cccnc1N2)C1COC1 [Example 250, N-ethyl-6-[(trans-4-methoxycyclohexyl)carbonyl]-N-oxetan-3-yl-6,11-dihydro-5H-pyrido[2,3-b][1,5]benzodiazepin-8-amine] | 374 nM
CO[C@H]1CC[C@H](C(=O)N2Cc3cccnc3Nc3ccc(N(C)C4CCOCC4)cc32)CC1 [Example 251, 6-[(trans-4-methoxycyclohexyl)carbonyl]-N-methyl-N-(tetrahydro-2H-pyran-4-yl)-6,11-dihydro-5H-pyrido[2,3-b][1,5]benzodiazepin-8-amine] | 326 nM
CC(C)O[C@H]1CC[C@H](C(=O)N2Cc3cccnc3Nc3ccc(N4C[C@@H]5CC[C@@H](C4)O5)cc32)CC1 [Example 252, 6-{[trans-4-(1-methylethoxy)cyclohexyl]car-bonyl}-8-[(1S,5S)-8-oxa-3-azabicyclo[3.2.1]oct-3-yl]-6,11-dihydro-5H-pyrido[2,3-b][1,5]benzodiazepine] | 23 nM
COc1ccc(C2CN(c3ccc4c(c3)N(C(=O)[C@H]3CC[C@H](OC)CC3)Cc3cccnc3N4)CCO2)cc1 (stereo partly drawn) [Example 253, 6-[(trans-4-methoxycyclohexyl)carbonyl]-8-[2-(4-methoxyphenyl)morpholin-4-yl]-6,11-dihydro-5H-pyrido[2,3-b][1,5]benzodiazepine] | 295 nM
CO[C@H]1CC[C@H](C(=O)N2Cc3cccnc3Nc3ccc(N4CCOC(c5cccnc5)C4)cc32)CC1 (stereo partly drawn) [Example 254, 6-[(trans-4-methoxycyclohexyl)carbonyl]-8-(2-pyridin-3-ylmorpholin-4-yl)-6,11-dihydro-5H-pyrido[2,3-b][1,5]benzodiazepine] | 894 nM
CO[C@H]1CC[C@H](C(=O)N2Cc3cccnc3Nc3ccc(N4CCOC(C)C4)cc32)CC1 (stereo partly drawn) [Example 255, 6-[(trans-4-methoxycyclohexyl)carbonyl]-8-(2-methylmorpholin-4-yl)-6,11-dihydro-5H-pyrido[2,3-b][1,5]benzodiazepine] | 567 nM
CO[C@H]1CC[C@H](C(=O)N2Cc3cccnc3Nc3ccc(N4CCO[C@@H](c5ccccc5)C4)cc32)CC1 [Example 256, 6-[(trans-4-methoxycyclohexyl)carbonyl]-8-[(2S)-2-phenylmorpholin-4-yl]-6,11-dihydro-5H-pyrido[2,3-b][1,5]benzodiazepine] | 215 nM
CO[C@H]1CC[C@H](C(=O)N2Cc3cccnc3Nc3ccc(N4CCOC(c5ccccc5)C4)cc32)CC1 (stereo partly drawn) [Example 257, 6-[(trans-4-methoxycyclohexyl)carbonyl]-8-(2-phenylmorpholin-4-yl)-6,11-dihydro-5H-pyrido[2,3-b][1,5]benzodiazepine] | 221 nM
CO[C@H]1CC[C@H](C(=O)N2Cc3cccnc3Nc3ccc(N4CCOC(c5ccc(F)cc5)C4)cc32)CC1 (stereo partly drawn) [Example 258, 8-[2-(4-fluorophenyl)morpholin-4-yl]-6-[(trans-4-methoxycyclohexyl)carbonyl]-6,11-dihydro-5H-pyrido[2,3-b][1,5]benzodiazepine] | 266 nM
COCCC1CN(c2ccc3c(c2)N(C(=O)[C@H]2CC[C@H](OC)CC2)Cc2cccnc2N3)CCO1 (stereo partly drawn) [Example 259, 6-[(trans-4-methoxycyclohexyl)carbonyl]-8-[2-(2-methoxyethyl)morpholin-4-yl]-6,11-dihydro-5H-pyrido[2,3-b][1,5]benzodiazepine] | 660 nM
COC[C@@H]1CCCN1c1ccc2c(c1)N(C(=O)[C@H]1CC[C@H](OC)CC1)Cc1cccnc1N2 [Example 260, 6-[(trans-4-methoxycyclohexyl)carbonyl]-8-[(2S)-2-(methoxymethyl)pyrrolidin-1-yl]-6,11-dihydro-5H-pyrido[2,3-b][1,5]benzodiazepine] | 153 nM
COC[C@H]1CCCN1c1ccc2c(c1)N(C(=O)[C@H]1CC[C@H](OC)CC1)Cc1cccnc1N2 [Example 261, 6-[(trans-4-methoxycyclohexyl)carbonyl]-8-[(2R)-2-(methoxymethyl)pyrrolidin-1-yl]-6,11-dihydro-5H-pyrido[2,3-b][1,5]benzodiazepine] | 191 nM
COC1(C)CN(c2ccc3c(c2)N(C(=O)[C@H]2CC[C@H](OC)CC2)Cc2cccnc2N3)C1 [Example 262, 6-[(trans-4-methoxycyclohexyl)carbonyl]-8-(3-methoxy-3-methylazetidin-1-yl)-6,11-dihydro-5H-pyrido[2,3-b][1,5]benzodiazepine] | 722 nM
COCC1CCN(c2ccc3c(c2)N(C(=O)[C@H]2CC[C@H](OC)CC2)Cc2cccnc2N3)CC1 [Example 263, 6-[(trans-4-methoxycyclohexyl)carbonyl]-8-[4-(methoxymethyl)piperidin-1-yl]-6,11-dihydro-5H-pyrido[2,3-b][1,5]benzodiazepine] | 105 nM
